In patent publication US20060040917A1, “Benzoxazepine derivatives as selective estrogen receptor modulators” (priority 2004, published 2006) one finds IC50 data, which are given here for one compound.

The chains behind the UniProt entries cited, without tags or fusion partners.
UniProt Q92731, whole entry: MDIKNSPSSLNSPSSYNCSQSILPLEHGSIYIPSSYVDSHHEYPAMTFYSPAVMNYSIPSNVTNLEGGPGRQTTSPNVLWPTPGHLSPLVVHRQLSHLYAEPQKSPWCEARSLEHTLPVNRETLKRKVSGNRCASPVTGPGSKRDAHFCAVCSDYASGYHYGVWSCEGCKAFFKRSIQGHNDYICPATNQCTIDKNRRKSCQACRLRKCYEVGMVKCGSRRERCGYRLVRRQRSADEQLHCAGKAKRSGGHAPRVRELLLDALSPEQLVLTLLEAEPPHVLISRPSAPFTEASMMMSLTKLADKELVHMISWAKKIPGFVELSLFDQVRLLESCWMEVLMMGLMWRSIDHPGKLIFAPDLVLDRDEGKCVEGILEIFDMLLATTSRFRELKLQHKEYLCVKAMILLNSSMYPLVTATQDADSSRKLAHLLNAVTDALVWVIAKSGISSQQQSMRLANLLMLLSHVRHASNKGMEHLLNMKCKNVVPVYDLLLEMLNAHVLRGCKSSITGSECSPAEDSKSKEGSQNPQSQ
UniProt P03372, whole entry: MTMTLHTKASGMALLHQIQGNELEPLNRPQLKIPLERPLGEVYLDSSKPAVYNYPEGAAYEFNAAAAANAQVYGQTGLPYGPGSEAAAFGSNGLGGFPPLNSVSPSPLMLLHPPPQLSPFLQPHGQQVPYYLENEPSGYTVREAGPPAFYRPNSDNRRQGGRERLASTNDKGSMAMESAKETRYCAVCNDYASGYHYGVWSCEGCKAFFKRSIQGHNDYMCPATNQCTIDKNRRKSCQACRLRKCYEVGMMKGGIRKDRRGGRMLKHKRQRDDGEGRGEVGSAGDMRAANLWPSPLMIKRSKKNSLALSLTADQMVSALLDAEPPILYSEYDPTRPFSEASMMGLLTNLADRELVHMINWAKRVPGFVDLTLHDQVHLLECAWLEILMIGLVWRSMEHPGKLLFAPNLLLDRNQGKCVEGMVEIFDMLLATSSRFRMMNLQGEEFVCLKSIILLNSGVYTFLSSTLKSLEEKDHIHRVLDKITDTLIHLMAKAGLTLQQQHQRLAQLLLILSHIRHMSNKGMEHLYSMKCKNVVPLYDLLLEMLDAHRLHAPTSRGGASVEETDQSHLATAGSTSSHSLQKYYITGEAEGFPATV

In assay [1] the target is hER-β (Homo sapiens, UniProt Q92731). The assay is described as follows: Estrogen Receptor β Fluorescence Polarization Assay. As to conditions: read-out: ERβ Binding IC50; displacement of Fluormone ES2, fluorescence polarization, 1 h room temperature. From the text: Estrogen Receptor β Fluorescence Polarization Assay
This assay monitors binding of a fluorescent analog of estrogen (Fluormone ES2, Panvera) to the estrogen receptor. Plates are read in a fluorometer that can be set to polarization mode. A decrease in […] relative to vehicle control is an indication of binding of a compound to the receptor.
It is crucial to avoid introduction of air bubbles into the reaction in each well of the 96 well plate throughout this procedure. (Bubbles on the surface of the reaction disrupt light flow, affecting the polarization reading.) However, it is also crucial to effectively mix the reaction components upon addition to the well.
On ice, a 2× standard mixture of Assay Buffer (Panvera), 10 nM DTT and 40 nM ES2 was prepared. On ice, a 2× reaction mixture of Assay Buffer (Panvera), and 20 nM hER-β (Panvera) and 40 nM ES2 was also prepared.
Dilutions of test compound were prepared in 30% (v/v) dimethyl sulfoxide/50 mM HEPES, pH 7.5. At this point, the dilutions were 40× the final required concentration.
The standard mixture at 50 μL was then added to each well. The reaction mixture at 48 μL was added to all wells. The compound dilution at 2.5 μL was added to the appropriate wells. […]
Each well on the plate was then read in an LjL Analyst with an excitation wavelength of […] and an emission wavelength of 538. […]
(In fluorescence polarisation assays a small probe gives low polarisation when free and higher when bound to something large.)

Assay [2] has as its target human estrogen receptor α (Homo sapiens, UniProt P03372). The assay is described as follows: Estrogen Receptor α Flash Plate Assay. The conditions noted are these: read-out: ERα Binding IC50; displacement of radio-labeled estrogen (0.5 nM), FlashPlate, 1 h room temperature. The protocol:
Estrogen Receptor α Flash Plate Assay
This assay monitors binding of radio-labeled estrogen to the estrogen receptor. It is performed on a BioMek 2000 (Beckman). Plates are read in a scintillation counter (Packard TopCount), with decreased counts an indication of binding of a compound to the receptor. The assay was run according to the procedure described by Allan, et al., Anal. Biochem. (1999), 275(2), 243-247.
On day one, 100 μL of Estrogen Screening Buffer (ESB, Panvera) containing 5 mM dithiothreitol (DTT, Panvera), 0.5 μg mouse anti-estrogen receptor monoclonal antibody (SRA-1010, Stressgen) and 50 ng purified human estrogen receptor α (Panvera) were added to each well of a 96 well FlashPlate Plus plate crosslinked with goat anti-mouse antibodies (NEN Life Sciences). The plate was sealed and incubated at 4° C. overnight.
On day two, each well was washed three times with 200 μL PBS, pH 7.2, at room temperature. To each well was then added 98 μL radio-labeled estrogen (0.5 nM, which equals 6 nCi for a 120 Ci/mmol batch, Amersham), diluted in ESB and 5 mM dithiothreitol (DTT). To individual wells were then added 2.5 μL test compound diluted in 30% (v/v) dimethyl sulfoxide/50 mM HEPES, pH 7.5. The wells were mixed three times by aspiration, the plate sealed and incubated at room temperature for one hour. The wells were then counted for 1 min in a TopCount scintillation counter (Packard). […]

The structures appear in SMILES notation.

`O=C(c1ccccc1)N1CC(c2ccc(O)cc2)COc2cc(O)ccc21` (centres unmarked): the values for the IC50 in assay [1] and in assay [2] were 1200 nM and 2900 nM, respectively.

For orientation: IC50 means the point on the concentration scale where inhibition reaches its midpoint.
